This passage reports IC50 results from patent EP4831169A1, “NOVEL COMPOUND USED AS CBP/P300 INHIBITOR, AND PHARMACEUTICAL COMPOSITION FOR PREVENTING OR TREATING CANCER, INFLAMMATORY DISORDERS, OR AUTOIMMUNE DISEASES COMPRISING SAME AS ACTIVE INGREDIENT” (dated 2026).

Chains of the proteins cited; added tags and fusions are not shown. Residues count along the entry.
UniProt Q92793, 1085-1192 limits assumed: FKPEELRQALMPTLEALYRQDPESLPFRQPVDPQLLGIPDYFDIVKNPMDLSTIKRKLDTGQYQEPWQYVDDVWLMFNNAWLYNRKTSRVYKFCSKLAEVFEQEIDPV

The target in one experiment is CBP BRD protein (Homo sapiens, UniProt Q92793). Nature of the experiment: CBP bromodomain TR-FRET inhibitory activity assay. The note with it: read-out: CBP BRD IC50, Table 3.
In a further experiment the target is BRD4 (BD1) protein (Homo sapiens, UniProt O60885). The experiment in a line: BRD4 bromodomain TR-FRET inhibitory activity assay. The note with it: read-out: BRD4 (BD1) IC50, Table 4.

For `Cn1cc(-c2cc3nc(-c4cncnc4)n(-c4cc(N5CC(C)(O)C5)c5c(c4)n(C)c(=O)n5C)c3cc2C(F)F)cn1`, the IC50 was less than 500 nM on CBP BRD protein and greater than 5000 nM at BRD4 (BD1) protein.
For `Cn1cc(-c2cc3nc(-c4cncn4C)n(-c4cc(C5CCOCC5)c5c(c4)n(C)c(=O)n5C)c3cc2C#N)cn1`, the IC50 at CBP BRD protein is less than 500 nM; at BRD4 (BD1) protein, greater than 5000 nM.
As for `CNC(=O)c1cc2c(cc1-c1cnn(C)c1)nc(C(C)(C)C)n2-c1cc(N2CCOCC2)c2c(c1)n(C)c(=O)n2C`, the IC50 at CBP BRD protein and on BRD4 (BD1) protein was 500 to 5000 nM throughout.
For the compound `COc1cc(OC)cc(-c2cc3nc(C(C)(C)C)n(-c4cc(N5CC(C)(O)C5)c5c(c4)n(C)c(=O)n5C)c3cc2C(F)F)c1`, the IC50 on CBP BRD protein was less than 500 nM; at BRD4 (BD1) protein, greater than 5000 nM.
`CC(=O)Nc1ccc(-c2cc3nc(-c4cncn4C)n(-c4cc(NC5CC5)c5c(c4)n(C)c(=O)n5C)c3cc2F)cc1`: the IC50 on CBP BRD protein is less than 500 nM; on BRD4 (BD1) protein, greater than 5000 nM.
`COc1ccc(Nc2cc(-n3c(-c4cncn4C)nc4cc(-c5cnn(C)c5)c(F)cc43)cc3c2n(C)c(=O)n3C)cc1`: the IC50 is less than 500 nM at CBP BRD protein and greater than 5000 nM at BRD4 (BD1) protein.
Take `CNCc1cc2c(cc1-c1cnn(C)c1)nc(C(C)(C)C)n2-c1cc(N2CCOCC2)c2c(c1)n(C)c(=O)n2C`: the IC50 on CBP BRD protein is 500 to 5000 nM; at BRD4 (BD1) protein, greater than 5000 nM.
Regarding `Cn1cc(-c2cc3nc(-c4cncn4C)n(-c4cc(Nc5ccccc5)c5c(c4)n(C)c(=O)n5C)c3cc2F)cn1`, the half-maximal inhibitory concentration (IC50) on CBP BRD protein was 500 to 5000 nM; at BRD4 (BD1) protein it was greater than 5000 nM.
As to `COc1cc2c(cc1-c1cnc(C)s1)nc(C(C)(C)C)n2-c1cc(N2CC(C)(O)C2)c2c(c1)n(C)c(=O)n2C`, the IC50 is less than 500 nM at CBP BRD protein and 500 to 5000 nM at BRD4 (BD1) protein.
On to `COc1cc2c(cc1-c1cnn(C)c1)nc(-c1cncn1C)n2-c1cc(N2CC(C)(O)C2)c2c(c1)n(C)c(=O)n2C`, for which the IC50 at CBP BRD protein and at BRD4 (BD1) protein was less than 500 nM throughout.
Consider `Cn1cc(-c2cc3nc(C(C)(C)C)n(-c4cc(N5CC(O)(C(F)(F)F)C5)c5c(c4)n(C)c(=O)n5C)c3cc2C(F)F)cn1`, for which the IC50 is less than 500 nM on CBP BRD protein and greater than 5000 nM on BRD4 (BD1) protein.
Take `Cn1cc(-c2cc3nc(C(C)(C)C)n(-c4cc(OC5COC5)c5c(c4)n(C)c(=O)n5C)c3cc2C(F)F)cn1`: the IC50 is less than 500 nM at CBP BRD protein and greater than 5000 nM on BRD4 (BD1) protein.
Take `Cn1c(=O)n(C)c2c(N3CC(C)(O)C3)cc(-n3c(C(C)(C)C)nc4cc(C5CC5)c(C(F)F)cc43)cc21`: the values for the IC50 at CBP BRD protein and at BRD4 (BD1) protein were less than 500 nM and greater than 5000 nM, respectively.
The matching figures for `CC(C)c1cc(-n2c(C3(C)CCC3)nc3cc(-c4cnn(C)c4)c(F)cc32)cc2c1n(C)c(=O)n2C`: 500 to 5000 nM and greater than 5000 nM.
As for `C[C@H]1[C@H](O)CN1c1cc(-n2c(-c3cncn3C)nc3cc(-c4cnn(C)c4)c(F)cc32)cc2c1n(C)c(=O)n2C`, the IC50 is less than 500 nM at CBP BRD protein and greater than 5000 nM at BRD4 (BD1) protein.
The corresponding values for “3-(1,3-dimethyl-2-oxo-benzimidazol-5-yl)-2-(3-methylimidazol-4-yl)-6-(1-methylpyrazol-4-yl)benzimidazole-5-carbonitrile” are less than 500 nM and greater than 5000 nM.
The matching figures for `CC(C)COc1cc(-n2c(-c3cncn3C)nc3cc(-c4cnn(C)c4)c(F)cc32)cc2c1n(C)c(=O)n2C`: less than 500 nM and greater than 5000 nM.
In the case of `CC(C)Nc1cc(-n2c(C(C)(C)C)nc3cc(-c4cnn(C)c4)c(C(F)F)cc32)cc2c1n(C)c(=O)n2C`, the IC50 is less than 500 nM on CBP BRD protein and greater than 5000 nM at BRD4 (BD1) protein.
For `CC(=O)Nc1ccc(-c2cc3nc(-c4cncn4C)n(-c4cc(NCCN5CCOCC5)c5c(c4)n(C)c(=O)n5C)c3cc2F)cc1`, the IC50 was less than 500 nM on CBP BRD protein and 500 to 5000 nM at BRD4 (BD1) protein.
In the case of `CCOC1(C)CN(c2cc(-n3c(C(C)(C)C)nc4cc(-c5cnn(C)c5)c(C(F)F)cc43)cc3c2n(C)c(=O)n3C)C1`, the 50% inhibitory concentration (IC50) on CBP BRD protein is less than 500 nM; on BRD4 (BD1) protein it was greater than 5000 nM.
Consider `CNC(=O)c1ccc(-c2cc3nc(-c4cncn4C)n(-c4ccc5c(c4)n(C)c(=O)n5C)c3cc2C(C)(C)O)cc1F`, for which the IC50 on CBP BRD protein and at BRD4 (BD1) protein was 500 to 5000 nM each time.
